Literature values as cited in publication PMC9459323 (Cancer Science, 2022).

Molecular target: LDHA (Homo sapiens, UniProt P00338)
Conditions: read-out: LDHA IC50

IC50: ~800 µM
SMILES: NC(=O)C(=O)O [Oxamate]
